Experimental data published in publication PMC3674922, “Single-molecule photobleaching reveals increased MET receptor dimerization upon ligand binding in intact cells” (BMC Biophysics, 2013).

Molecular target: the molecule itself
Experiment: single-molecule photobleaching and intensity analysis (TIRF); uninduced (resting) HeLa cells: fixed with 4% formaldehyde before 10 nM InlB-ATTO647N in PBS, 1 h at 4°C; MET detected through the bound labelled ligand; fractional labelling

B1: endogenous MET receptor on HeLa cells (receptor, human (endogenous in HeLa), UniProt P08581 25-1390, looked up)
chain: ECKEALAKSEMNVNMKYQLPNFTAETPIQNVILHEHHIFLGATNYIYVLNEEDLQKVAEYKTGPVLEHPDCFPCQDCSSKANLSGGVWKDNINMALVVDTYYDDQLISCGSVNRGTCQRHVFPHNHTADIQSEVHCIFSPQIEEPSQCPDCVVSALGAKVLSSVKDRFINFFVGNTINSSYFPDHPLHSISVRRLKETKDGFMFLTDQSYIDVLPEFRDSYPIKYVHAFESNNFIYFLTVQRETLDAQTFHTRIIRFCSINSGLHSYMEMPLECILTEKRKKRSTKKEVFNILQAAYVSKPGAQLARQIGASLNDDILFGVFAQSKPDSAEPMDRSAMCAFPIKYVNDFFNKIVNKNNVRCLQHFYGPNHEHCFNRTLLRNSSGCEARRDEYRTEFTTALQRVDLFMGQFSEVLLTSISTFIKGDLTIANLGTSEGRFMQVVVSRSGPSTPHVNFLLDSHPVSPEVIVEHTLNQNGYTLVITGKKITKIPLNGLGCRHFQSCSQCLSAPPFVQCGWCHDKCVRSEECLSGTWTQQICLPAIYKVFPNSAPLEGGTRLTICGWDFGFRRNNKFDLKKTRVLLGNESCTLTLSESTMNTLKCTVGPAMNKHFNMSIIISNGHGTTQYSTFSYVDPVITSISPKYGPMAGGTLLTLTGNYLNSGNSRHISIGGKTCTLKSVSNSILECYTPAQTISTEFAVKLKIDLANRETSIFSYREDPIVYEIHPTKSFISGGSTITGVGKNLNSVSVPRMVINVHEAGRNFTVACQHRSNSEIICCTTPSLQQLNLQLPLKTKAFFMLDGILSKYFDLIYVHNPVFKPFEKPVMISMGNENVLEIKGNDIDPEAVKGEVLKVGNKSCENIHLHSEAVLCTVPNDLLKLNSELNIEWKQAISSTVLGKVIVQPDQNFTGLIAGVVSISTALLLLLGFFLWLKKRKQIKDLGSELVRYDARVHTPHLDRLVSARSVSPTTEMVSNESVDYRATFPEDQFPNSSQNGSCRQVQYPLTDMSPILTSGDSDISSPLLQNTVHIDLSALNPELVQAVQHVVIGPSSLIVHFNEVIGRGHFGCVYHGTLLDNDGKKIHCAVKSLNRITDIGEVSQFLTEGIIMKDFSHPNVLSLLGICLRSEGSPLVVLPYMKHGDLRNFIRNETHNPTVKDLIGFGLQVAKGMKYLASKKFVHRDLAARNCMLDEKFTVKVADFGLARDMYDKEYYSVHNKTGAKLPVKWMALESLQTQKFTTKSDVWSFGVLLWELMTRGAPPYPDVNTFDITVYLLQGRRLLQPEYCPDPLYEVMLKCWHPKAEMRPSFSELVSRISAIFSTFIGEHYVHVNATYVNVKCVAPYPSLLSSEDNADDEVDTRPASFWETS
notes: MET receptor tyrosine kinase, endogenous on the membrane of HeLa cells; also called MET receptor tyrosine kinase; source: endogenous, on intact serum-starved HeLa cells
- stoichiometry N: 2
